Laboratory results from publication PMC10266737 (Science Advances, 2023).

Molecular target: T1, His-tagged Ku70 (UniProt P12956 1-609)
T1 sequence: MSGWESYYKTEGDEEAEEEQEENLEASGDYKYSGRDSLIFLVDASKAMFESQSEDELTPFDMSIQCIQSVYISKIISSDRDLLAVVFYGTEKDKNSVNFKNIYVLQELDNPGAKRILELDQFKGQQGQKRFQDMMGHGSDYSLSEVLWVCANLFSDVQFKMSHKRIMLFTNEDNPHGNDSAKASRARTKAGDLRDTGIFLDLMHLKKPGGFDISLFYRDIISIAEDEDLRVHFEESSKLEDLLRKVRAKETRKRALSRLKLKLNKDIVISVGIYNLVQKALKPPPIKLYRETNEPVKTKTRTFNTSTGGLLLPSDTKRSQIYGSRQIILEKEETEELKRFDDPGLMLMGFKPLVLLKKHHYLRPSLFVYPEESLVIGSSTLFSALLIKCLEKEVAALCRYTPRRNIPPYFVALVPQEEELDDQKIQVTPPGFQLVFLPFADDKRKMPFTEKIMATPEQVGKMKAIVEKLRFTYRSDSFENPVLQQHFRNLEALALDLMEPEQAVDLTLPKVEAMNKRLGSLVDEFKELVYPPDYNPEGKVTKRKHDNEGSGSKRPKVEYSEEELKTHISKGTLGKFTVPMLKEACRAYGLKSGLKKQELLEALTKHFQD
Assay: pull-down

B1: GST-SMYD2 (enzyme)
chain: MRAEGLGGLERFCSPGKGRGLRALQPFQVGDLLFSCPAYAYVLTVNERGNHCEYCFTRKEGLSKCGRCKQAFYCNVECQKEDWPMHKLECSPMVVFGENWNPSETVRLTARILAKQKIHPERTPSEKLLAVKEFESHLDKLDNEKKDLIQSDIAALHHFYSKHLGFPDNDSLVVLFAQVNCNGFTIEDEELSHLGSAIFPDVALMNHSCCPNVIVTYKGTLAEVRAVQEIKPGEEVFTSYIDLLYPTEDRNDRLRDSYFFTCECQECTTKDKDKAKVEIRKLSDPPKAEAIRDMVRYARNVIEEFRRAKHYKSPSELLEICELSQEKMSSVFEDSNVYMLHMMYQAMGVCLYMQDWEGALQYGQKIIKPYSKHYPLYSLNVASMWLKLGRLYMGLEHKAAGEKALKKAIAIMEVAHGKDHPYISEIKQEIESH
binding result: binds
